# Molecular target: Serum paraoxonase/arylesterase 1 (Homo sapiens) (UniProt P27169)
# Amino acid sequences for entries named in this document (tags omitted). A change or cut given only in a name is not applied to a line headed by its entry.
# UniProt P27169: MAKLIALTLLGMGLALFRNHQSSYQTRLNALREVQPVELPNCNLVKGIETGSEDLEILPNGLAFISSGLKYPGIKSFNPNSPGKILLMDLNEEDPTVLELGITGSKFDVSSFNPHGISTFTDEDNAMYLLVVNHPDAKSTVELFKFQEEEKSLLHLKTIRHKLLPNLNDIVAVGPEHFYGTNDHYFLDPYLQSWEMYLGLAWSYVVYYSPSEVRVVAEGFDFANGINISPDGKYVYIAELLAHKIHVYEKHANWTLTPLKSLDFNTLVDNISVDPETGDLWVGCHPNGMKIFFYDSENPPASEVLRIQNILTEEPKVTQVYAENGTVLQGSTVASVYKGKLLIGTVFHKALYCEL
# Assay: Activity at human recombinant PON1 assessed as hydrolysis of lactone ring at 1 mM by Ellman's method
smiles,measurement,value
O=C1CCc2ccccc2O1,Activity,13 µmol/min/mg

# — ChEMBL document CHEMBL1155779, “Characterization of the PON1 active site using modeling simulation, in relation to PON1 lactonase activity” (Bioorg Med Chem, 2008)
